Data published in IntAct's records for PubMed 26471729.

B1: Nuclear protein localization protein 4 homolog (Homo sapiens), Q8TAT6 (parent)
chain: MAESIIIRVQSPDGVKRITATKRETAATFLKKVAKEFGFQNNGFSVYINRNKTGEITASSNKSLNLLKIKHGDLLFLFPSSLAGPSSEMETSVPPGFKVFGAPNVVEDEIDQYLSKQDGKIYRSRDPQLCRHGPLGKCVHCVPLEPFDEDYLNHLEPPVKHMSFHAYIRKLTGGADKGKFVALENISCKIKSGCEGHLPWPNGICTKCQPSAITLNRQKYRHVDNIMFENHTVADRFLDFWRKTGNQHFGYLYGRYTEHKDIPLGIRAEVAAIYEPPQIGTQNSLELLEDPKAEVVDEIAAKLGLRKVGWIFTDLVSEDTRKGTVRYSRNKDTYFLSSEECITAGDFQNKHPNMCRLSPDGHFGSKFVTAVATGGPDNQVHFEGYQVSNQCMALVRDECLLPCKDAPELGYAKESSSEQYVPDVFYKDVDKFGNEITQLARPLPVEYLIIDITTTFPKDPVYTFSISQNPFPIENRDVLGETQDFHSLATYLSQNTSSVFLDTISDFHLLLFLVTNEVMPLQDSISLLLEAVRTRNEELAQTWKRSEQWATIEQLCSTVGGQLPGLHEYGAVGGSTHTATAAMWACQHCTFMNQPGTGHCEMCSLPRT

Variants of: B1
Conditions: with tera_human VCP

Effect of a mutation on the interaction, disrupting interaction strength:
R50A
I6A;R8A;R17A;R50A
I6A;R8A;R17A
I6A;R8A
